Molecules are shown by their SMILES. Only a part is listed here, and it is no random draw. Active and inactive are the calls of the source.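 How the source made its calls: active means inhibition above the mean inhibition across every tested compound plus 3 SD (cut at about 22% in these data); inactive means the rest.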

Chains of the proteins cited; added tags and fusions are not shown.
UniProt Q00G26, whole entry, looked up: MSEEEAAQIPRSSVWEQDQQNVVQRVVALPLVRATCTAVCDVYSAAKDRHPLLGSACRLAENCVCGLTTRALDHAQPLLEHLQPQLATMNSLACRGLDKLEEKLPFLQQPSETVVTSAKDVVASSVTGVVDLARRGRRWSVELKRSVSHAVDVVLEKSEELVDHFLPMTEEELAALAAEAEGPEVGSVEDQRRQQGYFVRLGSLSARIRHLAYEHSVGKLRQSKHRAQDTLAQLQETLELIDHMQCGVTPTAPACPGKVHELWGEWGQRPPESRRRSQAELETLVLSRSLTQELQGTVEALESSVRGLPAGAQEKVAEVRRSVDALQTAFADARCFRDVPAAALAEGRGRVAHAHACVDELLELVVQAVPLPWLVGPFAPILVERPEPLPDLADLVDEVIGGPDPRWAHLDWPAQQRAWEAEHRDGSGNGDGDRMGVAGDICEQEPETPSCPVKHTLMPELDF
UniProt Q8WTS1, whole entry, looked up: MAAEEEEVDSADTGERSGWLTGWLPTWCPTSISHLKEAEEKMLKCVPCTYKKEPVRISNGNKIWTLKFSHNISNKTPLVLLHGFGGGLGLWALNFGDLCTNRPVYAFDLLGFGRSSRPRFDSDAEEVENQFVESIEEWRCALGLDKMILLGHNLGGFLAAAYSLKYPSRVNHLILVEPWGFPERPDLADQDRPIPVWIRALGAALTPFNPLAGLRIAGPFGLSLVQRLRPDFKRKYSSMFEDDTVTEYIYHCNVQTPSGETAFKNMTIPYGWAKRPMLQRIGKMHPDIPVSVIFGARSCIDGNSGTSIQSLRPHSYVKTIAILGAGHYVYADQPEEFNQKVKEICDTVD

This test deals with Perilipin-5 (Homo sapiens) + 1-acylglycerol-3-phosphate O-acyltransferase ABHD5 (Homo sapiens) (UniProt Q00G26+Q8WTS1). Nature of the test: ABHD5-PLIN5 interaction inhibitors, primary screen, cell lysate, split luciferase complementation, luminescence (AID 602281).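 Further: 0% = DMSO only wells and the 100% control is not disclosed.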 The following applies: Split G. princeps luciferase complementation, 4 h, at 4 µM, hits give high values.
Usually inhibition stands for the relative decrease from the control value, in per cent. With `Cc1cc(C)cc(OP(C)(N)=O)c1` (configuration not stated), the inhibition was inactive: 1.64%.

With `COc1ccccc1OP(C)(=O)Nc1cc(Cl)ccc1C` (configuration not stated), the inhibition is inactive: 2.99%.

On to `COc1ccc(OP(C)(=O)Nc2cccc(F)c2)cc1` (configuration not stated), for which the inhibition is inactive: -0.64%.

Regarding `COc1ccccc1OP(C)(=O)Nc1ccc(C)cc1` (configuration not stated), the inhibition was inactive: 0.63%.

`Cc1ccc(NP(C)(=O)Oc2ccccc2)c(C)c1` (configuration not stated): the inhibition was inactive: 1.34%.

Consider `CCOC(=O)c1ccc(NP(C)(=O)Oc2ccccc2)cc1` (configuration not stated), for which the inhibition is inactive: 5.48%.

In the case of `O=[N+]([O-])c1ccc2c(c1)C=Nc1ccccc1O2`, the inhibition is inactive: 4.87%.

For the compound `CC(C)(C)c1ccc(OP(C)(=O)Nc2ccc(SC(F)(F)F)cc2)cc1` (configuration not stated), the inhibition was inactive: -9.93%.

`Cc1cccc(C)c1OP(C)(N)=O` (configuration not stated): the inhibition was inactive: 0.66%.

For the compound `O=[N+]([O-])c1cc([N+](=O)[O-])c(Nc2cccnc2)c([N+](=O)[O-])c1`, the inhibition was inactive: -7.81%.

With `COc1ccccc1-c1ccccn1.O=[N+]([O-])c1cc([N+](=O)[O-])c(O)c([N+](=O)[O-])c1`, the inhibition is inactive: 8.15%.

For `CCN(CC)CCCOC(=O)C(O)(c1ccccc1)c1ccccc1`, the inhibition was inactive: 4.42%.

With `CP(=O)(Nc1ccccn1)Oc1ccc(Cl)cc1` (configuration not stated), the inhibition was inactive: 1.98%.

On to `CCOC(=O)c1ccc(NP(C)(=O)Oc2ccc(OC)cc2)cc1` (configuration not stated), for which the inhibition is inactive: 1.58%.

Regarding `O=[N+]([O-])c1cc([N+](=O)[O-])c(O)c([N+](=O)[O-])c1.c1ccc(Oc2ccncc2)cc1`, the inhibition is inactive: 8.49%.

As for `CCOP(C)(=S)SCC(=O)NC(C)C(=O)O` (configuration not stated), the inhibition is inactive: 1.75%.

Regarding `CCc1ccc(OP(C)(=O)N2CCN(c3ccc([N+](=O)[O-])cc3)CC2)cc1` (configuration not stated), the inhibition is inactive: 6.78%.

Take `CP(=O)(NC(=O)Nc1ccccc1)Oc1ccccc1` (configuration not stated): the inhibition is inactive: -6.27%.

For the compound `Cc1cc(C)cc(OP(C)(=O)Nc2ccc(SC(F)(F)F)cc2)c1` (configuration not stated), the inhibition was inactive: 4.28%.

In the case of `Cc1ccc(Nc2c([N+](=O)[O-])cc([N+](=O)[O-])cc2[N+](=O)[O-])cc1`, the inhibition was inactive: -10.5%.

Regarding `Cc1cccc(C)c1OP(C)(=O)Nc1ccc(SC(F)(F)F)cc1` (configuration not stated), the inhibition is inactive: -8.23%.

Consider `CP(=O)(Nc1ccc(SC(F)(F)F)cc1)Oc1ccc(Cl)cc1` (configuration not stated), for which the inhibition is inactive: -2.43%.

Turning to `CP(=O)(Oc1ccccc1)OC(c1ccccc1)C(F)(F)F` (configuration not stated), the inhibition is inactive: -2.15%.

For the compound `CP(=O)(Nc1ccccc1Br)Oc1ccccc1` (configuration not stated), the inhibition was inactive: -0.95%.

In the case of `COc1ccccc1OP(C)(=O)Nc1ccccc1` (configuration not stated), the inhibition is inactive: -1.63%.

In the case of `CP(=S)(Nn1cnnc1)Oc1ccccc1` (configuration not stated), the inhibition was inactive: 8.33%.

For `COc1ccc(-c2ccccn2)cc1.O=[N+]([O-])c1cc([N+](=O)[O-])c(O)c([N+](=O)[O-])c1`, the inhibition is inactive: 4.5%.

These data come from PubChem BioAssay AID602281 (The Scripps Research Institute Molecular Screening Center, 2012).
